Earlier results, collected in publication PMC8583776, “PD-L1 Inhibitors: Different Classes, Activities, and Mechanisms of Action” (International Journal of Molecular Sciences, 2021).

Tested on: mPD-L1
Parameters: method as in PMID 33437940; key: √: particular activity confirmed experimentally; No: the compound was confirmed not to possess a particular activity; n.d.: no data on a particular activity
Conditions: mouse PD-L1; cited from earlier work

In the case of “hPD-1: human PD-1 protein, natural ligand of PD-L1”, the “Target Specificity mPD-L1” value is given as “√”.
